Values quoted from earlier work in patent publication US20260174791A1, “MACROPHAGE MIGRATION INHIBITORY FACTOR (MIF) TARGETING FOR THE TREATMENT OF NON-SMALL CELL LUNG CANCER” (Board of Regents, The University of Texas System, priority 2022, published 2026).

Columns and labels:
ALK-positive disease = details: patients with ALK-positive disease, clinical studies; cited from earlier work
advanced NSCLC = details: combined chemotherapy including cetuximab vs standard chemotherapy alone; cited from earlier work

| Compound | response rates (ALK-positive disease) | overall survival (advanced NSCLC) |
| --- | --- | --- |
| C[C@@H](Oc1cc(-c2cnn(C3CCNCC3)c2)cnc1N)c1c(Cl)ccc(F)c1Cl [Crizotinib] | around 60% |  |
| cetuximab |  | more effective at improving a person's overall survival |
